From patent US20260382772A1, “KETO-AMIDE-BASED FIBROBLAST ACTIVATION PROTEIN-TARGETED LIGAND LINKED TO AN IMAGING OR THERAPEUTIC AGENT, COMPOSITIONS, AND METHODS OF USE” (published 2026)

What was measured:
[1] = system: HEK-FAP tumor bearing mice; assay: Biodistribution of ^177Lu-FAP8-PEG3-IP-DOTA in HEK-FAP tumor bearing mice; settings: 5.0 nmol/mouse
Source text: Balb/c mice were inoculated on their shoulders with 1×10^5 cells of 4T1 cells, whereas nu/nu mice were inoculated on their shoulders with 5×10^6 cells of HT29 (a human colorectal adenocarcinoma cell line), KB (tumor cell line HeLa), MDA-MB-231 (a human breast cancer cell line), or HEK-FAP cells.
For the first study, two different tumor-bearing mice (4T1 and HEK-hFAP) were intravenously injected with [^111In] In-FAP8-PEG3-IP-DOTA (In-Conjugate 24′) (0.74 MBq/mouse, 1-10 nmol/mouse) or [^177Lu] Lu-FAP8-PEG3-IP-DOTA (Lu-Conjugate 24′) (7.4 MBq/mouse, 0.3 nmol-5 nmol/mouse).
At indicated time points (1 hour, 4 hours, 24 hours, 72 hours, 120 hours, and 168 hours post-injection), mice were assessed and/or euthanized by CO2 asphyxiation and organs of interest were harvested, excess blood was rinsed, dried, weighed, and then analyzed by gamma counter, and the results were decay corrected and presented as the percentage of the injected dose per gram of tissue (% ID/g)±standard deviation (SD).

KB tumor bearing mice = assay: Toxicology (H&E histopathology) in KB tumor-bearing mice; settings: single dose 37 MBq
Source text: (§1) Mice were weighed every other day during radiotherapy as a gross evaluation of health. Tissue sections from organs of interest (n=1-8 per organ per mouse) were preserved and examined blindly for lesions by a board-certified veterinary pathologist.
To assess toxicology in the KB tumor-bearing mice treated with Lu-Conjugate 24′, 4 μm sections of mouse heart, liver, and kidney tissue samples were taken following radiotherapy treatments of a single dose of [^177Lu] Lu-FAP8-PEG3-IP-DOTA (Lu-Conjugate 24′) and 37 MBq radiotherapy in athymic nu/nu mice bearing KB tumors. 1.0 mCi was used for the treatment. The tissue samples were stained with H&E and representative photomicrographs were taken (FIG. 49; Table 15).

[2] = system: MDA-MB-231, KB, and HT29 cancers in tumor-bearing mice; assay: Radiotherapy efficacy in tumor-bearing mice; settings: 37 MBq single intravenous dose, FIG. 37
Description: Efficacy studies were conducted on mice expressing tumors from various cell lines. Briefly, Balb/c mice were inoculated on their shoulders with 1×10^5 cells of 4T1 cells, whereas nu/nu mice were inoculated on their shoulders with 5×10^6 cells of HT29 (a human colorectal adenocarcinoma cell line), KB (tumor cell line HeLa), MDA-MB-231 (a human breast cancer cell line), or HEK-FAP cells.
4T1, HT29, KB, and MDA-MB231 tumor-bearing mice were randomly divided into control and treatment groups (n=5/group) to ensure similar starting tumor volumes. Each cohort received a single intravenous injection of saline or with 37 MBq/mouse of [^177Lu] Lu-FAP8-PEG3-IP-DOTA conjugate (Lu-Conjugate 24′) to HT29, KB and MDA-MB231 tumor-bearing mice and 37 MBq, 18.5 MBq and 9.25 MBq/mouse of [^177Lu] Lu-FAP8-PEG3-IP-DOTA (Lu-Conjugate 24′) to 4T1 tumor bearing mice on day 0.
Tumors were then measured with a caliper in two perpendicular directions every other day. Mice were euthanized upon reaching one of the predefined endpoint criteria according to IACUC regulations.
as §1

With `COc1ccc(CNC(=O)C(=O)[C@@H]2CC(F)(F)CN2C(=O)CNC(=O)c2ccnc3ccc(OCC(=O)NCCOCCOCCOCCNC(=O)[C@H](CCCCNC(=O)CCCc4ccc(I)cc4)NC(=O)CN4CCN(CC(=O)O)CCN(CC(=O)O)CCN(CC(=O)O)CC4)cc23)cc1OC.[Lu+3]` the Blood uptake ([1]; 1 h) was 21.69 ± 4.75 % ID/g, the Bone marrow uptake ([1]; 1 h) was 0.63 ± 0.39 % ID/g and the Heart uptake ([1]; 1 h) was 1.16 ± 0.32 % ID/g. For the same molecule, the Intestine uptake ([1]; 1 h) was 1.14 ± 0.48 % ID/g, the Kidneys uptake ([1]; 1 h) was 5.61 ± 2.08 % ID/g and the Liver uptake ([1]; 1 h) was 8.39 ± 1.48 % ID/g. It also gave a Lungs uptake ([1]; 1 h) of 1.79 ± 0.65 % ID/g, a Spleen uptake ([1]; 1 h) of 4.21 ± 1.23 % ID/g and a Stomach uptake ([1]; 1 h) of 0.75 ± 0.12 % ID/g. The Tumor uptake ([1]; 1 h) was 7.79 ± 1.32 % ID/g, the Tumor/Blood ([1]; 1 h) was 0.34 ± 0.04 and the Tumor/Bone marrow ([1]; 1 h) was 30.29 ± 35.11. It also gave a Tumor/Kidneys ([1]; 1 h) of 1.5 ± 0.31, a Blood uptake ([1]; 4 h) of 14.19 ± 2.67 % ID/g and a Bone marrow uptake ([1]; 4 h) of 1.07 ± 0.80 % ID/g. It also gave a Heart uptake ([1]; 4 h) of 0.5 ± 0.26 % ID/g, an Intestine uptake ([1]; 4 h) of 0.23 ± 0.26 % ID/g and a Kidneys uptake ([1]; 4 h) of 3.35 ± 1.93 % ID/g. It also gave a Liver uptake ([1]; 4 h) of 4.37 ± 1.31 % ID/g, a Lungs uptake ([1]; 4 h) of 1.54 ± 1.08 % ID/g and a Spleen uptake ([1]; 4 h) of 1.44 ± 0.48 % ID/g. It also gave a Stomach uptake ([1]; 4 h) of 0.15 ± 0.07 % ID/g, a Tumor uptake ([1]; 4 h) of 10.13 ± 1.7 % ID/g and a Tumor/Blood ([1]; 4 h) of 0.70 ± 0.04. It also gave a Tumor/Bone marrow ([1]; 4 h) of 22.34 ± 20.76, a Tumor/Kidneys ([1]; 4 h) of 3.37 ± 1.78 and a Blood uptake ([1]; 24 h) of 4.23 ± 1.81 % ID/g. It also gave a Bone marrow uptake ([1]; 24 h) of 0.56 ± 0.39 % ID/g, a Heart uptake ([1]; 24 h) of 0.54 ± 0.32 % ID/g and an Intestine uptake ([1]; 24 h) of 0.62 ± 0.35 % ID/g. The Kidneys uptake ([1]; 24 h) was 1.54 ± 1.08 % ID/g, the Liver uptake ([1]; 24 h) was 3.98 ± 0.96 % ID/g and the Lungs uptake ([1]; 24 h) was 0.58 ± 0.17 % ID/g. For the same molecule, the Spleen uptake ([1]; 24 h) was 1.59 ± 0.55 % ID/g, the Stomach uptake ([1]; 24 h) was 0.37 ± 0.16 % ID/g and the Tumor uptake ([1]; 24 h) was 13.99 ± 4.61 % ID/g. It also gave a Tumor/Blood ([1]; 24 h) of 3.63 ± 1.16, a Tumor/Bone marrow ([1]; 24 h) of 33.58 ± 19.14 and a Tumor/Kidneys ([1]; 24 h) of 12.76 ± 6.73. For the same molecule, the Blood uptake ([1]; 72 h) was 1.22 ± 0.51 % ID/g, the Bone marrow uptake ([1]; 72 h) was 1.31 ± 0.88 % ID/g and the Heart uptake ([1]; 72 h) was 0.54 ± 0.31 % ID/g. It also gave an Intestine uptake ([1]; 72 h) of 0.29 ± 0.10 % ID/g, a Kidneys uptake ([1]; 72 h) of 1.42 ± 0.51 % ID/g and a Liver uptake ([1]; 72 h) of 3.73 ± 1.25 % ID/g. The Lungs uptake ([1]; 72 h) was 0.63 ± 0.44 % ID/g, the Spleen uptake ([1]; 72 h) was 4.46 ± 2.52 % ID/g and the Stomach uptake ([1]; 72 h) was 0.26 ± 0.10 % ID/g. For the same molecule, the Tumor uptake ([1]; 72 h) was 16.89 ± 13.2 % ID/g, the Tumor/Blood ([1]; 72 h) was 13.03 ± 4.45 and the Tumor/Bone marrow ([1]; 72 h) was 12.69 ± 6.67. It also gave a Tumor/Kidneys ([1]; 72 h) of 13.23 ± 6.51, a Blood uptake ([1]; 120 h) of 0.29 ± 0.07 % ID/g and a Bone marrow uptake ([1]; 120 h) of 0.922 ± 1.07 % ID/g. It also gave a Heart uptake ([1]; 120 h) of 0.30 ± 0.14 % ID/g, an Intestine uptake ([1]; 120 h) of 0.195 ± 0.05 % ID/g and a Kidneys uptake ([1]; 120 h) of 1.425 ± 1.01 % ID/g. The Liver uptake ([1]; 120 h) was 2.37 ± 0.88 % ID/g, the Lungs uptake ([1]; 120 h) was 0.335 ± 0.17 % ID/g and the Spleen uptake ([1]; 120 h) was 2.50 ± 0.71 % ID/g. The Stomach uptake ([1]; 120 h) was 0.127 ± 0.02 % ID/g, the Tumor uptake ([1]; 120 h) was 11.48 ± 3.24 % ID/g and the Tumor/Blood ([1]; 120 h) was 43.42 ± 20.68. The Tumor/Bone marrow ([1]; 120 h) was 30.40 ± 25.91, the Tumor/Kidneys ([1]; 120 h) was 11.78 ± 7.78 and the Blood uptake ([1]; 168 h) was 0.22 ± 0.05 % ID/g. It also gave a Bone marrow uptake ([1]; 168 h) of 1.825 ± 0.6 % ID/g, a Heart uptake ([1]; 168 h) of 0.42 ± 0.22 % ID/g and an Intestine uptake ([1]; 168 h) of 0.15 ± 0.05 % ID/g. The Kidneys uptake ([1]; 168 h) was 0.62 ± 0.26 % ID/g, the Liver uptake ([1]; 168 h) was 2.3 ± 0.81 % ID/g and the Lungs uptake ([1]; 168 h) was 0.67 ± 0.25 % ID/g. The Spleen uptake ([1]; 168 h) was 1.82 ± 0.61 % ID/g, the Stomach uptake ([1]; 168 h) was 0.15 ± 0.05 % ID/g and the Tumor uptake ([1]; 168 h) was 12.05 ± 5.15 % ID/g. The Tumor/Blood ([1]; 168 h) was 55.10 ± 18.20, the Tumor/Bone marrow ([1]; 168 h) was 8.35 ± 2.00 and the Tumor/Kidneys ([1]; 168 h) was 22.40 ± 10.87. For the same molecule, the Heart histopathology (KB tumor bearing mice; individual treated mice M4-M6) was “NDL”, the Kidneys histopathology (KB tumor bearing mice; individual treated mice M4-M6) was “NDL” and the Lungs histopathology (KB tumor bearing mice; individual treated mice M4-M6) was “NDL”. For the same molecule, the “mice with histopathologic lesions consistent with mononuclear inflammation around portal areas” value (KB tumor bearing mice; mice #4 and #6, no necrosis or neutrophil leukocytes) was 2 of the 3, the weight [2] was “did not adversely affect the subject's weight” and the “tumor growth and overall survival” value ([2]; vs control groups) was “positive effect on both tumor growth and overall survival in all cell lines as compared to the control groups”.
